For assay [1], the species on record is Homo sapiens. Briefly: Selectivity ratio of IC50 for human DNA-PK to IC50 for human mTOR.
The species entered for assay [2] is Homo sapiens. Kind of assay: Selectivity ratio of IC50 for human DDR1 to IC50 for human mTOR.
For assay [3], the species on record is Homo sapiens. Kind of assay: Selectivity ratio of IC50 for PI3Kalpha (unknown origin) to IC50 for human mTOR.
The species named for assay [4] is Homo sapiens. Briefly: Selectivity ratio of IC50 for PI3Kbeta (unknown origin) to IC50 for human mTOR.
The species entered for assay [5] is Homo sapiens. Kind of assay: Selectivity ratio of IC50 for PI3Kgamma (unknown origin) to IC50 for human mTOR.
The species entered for assay [6] is Homo sapiens. Briefly: Selectivity ratio of IC50 for PI3Kdelta (unknown origin) to IC50 for human mTOR.
The species named for assay [7] is Homo sapiens. Kind of assay: Selectivity ratio of IC50 for human ABL to IC50 for human mTOR.
For assay [8], the species on record is Homo sapiens. Briefly: Selectivity ratio of IC50 for human BLK to IC50 for human mTOR.
For assay [9], the species on record is Homo sapiens. Kind of assay: Selectivity ratio of IC50 for human FYN to IC50 for human mTOR.
The species entered for assay [10] is Homo sapiens. Kind of assay: Selectivity ratio of IC50 for human KIT to IC50 for human mTOR.
Assay [11] is filed under the species Homo sapiens. Briefly: Selectivity ratio of IC50 for human PDGFRalpha to IC50 for human mTOR.
The species named for assay [12] is Homo sapiens. Briefly: Selectivity ratio of IC50 for human RET to IC50 for human mTOR.
The species named for assay [13] is Homo sapiens. Briefly: Selectivity ratio of IC50 for human SRC to IC50 for human mTOR.
For assay [14], the species on record is Homo sapiens. Briefly: Selectivity ratio of IC50 for human YES to IC50 for human mTOR.

As to `CCOC(Cn1nc(-c2ccc3oc(N)nc3c2)c2c(N)ncnc21)OCC`, the Ratio IC50 in assay [1] is > 20; in [2], > 65; in assay [3], > 65; in [4], > 65; in [5], > 65; in assay [6], > 65. The Ratio IC50 in assay [7], in assay [8], in assay [9], in assay [10], in [11] and in [12] was > 65 in each case. The Ratio IC50 in assay [13] and in assay [14] was > 65 throughout.

Values taken from ChEMBL document CHEMBL3797068, “eCF309: a potent, selective and cell-permeable mTOR inhibitor” (Medchemcomm, 2016).
